In data set [1] the test system is Inoculum. The experiment in a line: Acid sanitizer microbiology test (sanitizing capacity).
Data set [2] can be described thus: Dye and chlorine stability test, effect of pH. The conditions noted are these: initial 100 ppm chlorine. Type of data set: physicochemical.
Data set [3] in a line: Chlorine stability of acid sanitizer solutions. The format is physicochemical.

The results in this text go back to patent US20030059483A1, “Color stable hypochlorous sanitizer and methods” (priority 1999, published 2003).

Where “and” joins values, the source holds several entries; their conditions need not be identical. Equal entries are not always repeated.

Turning to Chlorinated trisodium phosphate, the “% Reduction” value in data set [1] (chlorine 12 ppm, pH 5.13) came to 100.0000%.

On to Sodium dichloroisocyanurate dihydrate, for which the “Available Chlorine” value in data set [2] (pH buffered at 2, 0.0 hours) is listed as 10-50 ppm; in data set [2] (pH buffered at 2, 175 hours) it was 0 ppm; in data set [2] (pH buffered at 4, 2.5 hours) it was 80-100 ppm; in data set [2] (pH buffered at 4, 175 hours), 0 ppm; in data set [2] (pH buffered at 6, 5.0 hours) it was 100 ppm; in data set [2] (pH buffered at 6, 175 hours), 80-100 ppm. The “Available Chlorine” value was 100 ppm in data set [2] (pH buffered at 8, 0.25 hours); 50-100 ppm in data set [2] (pH buffered at 8, 175 hours); 100 ppm in data set [2] (pH buffered at 10, 0.0 hours); 10 ppm in data set [2] (pH buffered at 10, 175 hours); 100 ppm in data set [2] (pH buffered at 12, 0.0 hours); 10 ppm in data set [2] (pH buffered at 12, 175 hours). The “% Reduction” value is 99.9999% and 100.0000% in data set [1] (chlorine 10 ppm, pH 4.55, listed as CDB Chlorinated Isocyanurate, dihydrate); 100.0000% in data set [1] (chlorine 30 ppm, pH 4.78). Moreover, the “Chlorine (ppm) Conc. 0 Time” value in data set [3] (chlorine 10 ppm, pH 4.55) was 9.9 ppm; in data set [3] (chlorine 30 ppm, pH 4.78), 26.9 ppm. Further, the “Chlorine (ppm) Conc. 4 Hours” value was 8.5 ppm in data set [3] (chlorine 10 ppm, pH 4.55) and 22.69 ppm in data set [3] (chlorine 30 ppm, pH 4.78). Besides, the “Chlorine (ppm) Conc. 24 Hours” value in data set [3] (chlorine 10 ppm, pH 4.55) is 5.67 ppm; in data set [3] (chlorine 30 ppm, pH 4.78), 19.85 ppm.
